Values of other authors, collected in patent US6576670B1, “Use of a 5HT2A and 5HT2A/C receptor antagonist for treating snoring and high resistance syndrome of upper anatomical airways” (Sanofi—Synthelabo, priority 1998, dated 2003).

How the values were obtained:
5HT2 receptors = details: administered systemically; English bulldog; cited from earlier work
5HT2 receptor = details: rats; cited from earlier work

CC[C@@H](CO)NC(=O)[C@@H]1C=C2c3cccc4c3c(cn4C)C[C@H]2N(C)C1 [methysergide]
activity of the diaphragm (5HT2 receptors): slight reduction
activity of the dilatory muscle of the upper respiratory tracts (5HT2 receptors): marked reduction
increase in pulmonary resistance induced by 5-HT (5HT2 receptor): inhibit
